Data as given in ChEMBL document CHEMBL3046915, “Synthesis and evaluation of -opioid receptor agonistic activity and antinociceptive effect of novel morphine analogues, 7-phenyl-6,14-endo-etheno-tetrahydrothebaine with substituted o-, m- and p-amino group” (2011).

Sequences of proteins named here, by UniProt entry; tags and fusion partners are left off. A change or cut given only in a name is not applied to a line headed by its entry.
UniProt P41144: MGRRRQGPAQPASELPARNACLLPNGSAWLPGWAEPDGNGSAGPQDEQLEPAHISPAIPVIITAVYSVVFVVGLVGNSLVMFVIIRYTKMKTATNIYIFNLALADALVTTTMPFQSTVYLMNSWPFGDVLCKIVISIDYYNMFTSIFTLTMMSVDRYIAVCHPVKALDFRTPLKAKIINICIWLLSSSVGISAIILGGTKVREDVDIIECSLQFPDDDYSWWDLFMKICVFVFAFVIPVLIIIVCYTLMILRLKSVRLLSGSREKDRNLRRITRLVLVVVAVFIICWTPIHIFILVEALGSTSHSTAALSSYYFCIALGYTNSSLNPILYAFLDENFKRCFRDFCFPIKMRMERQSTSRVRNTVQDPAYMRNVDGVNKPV

Molecular target: Kappa-type opioid receptor (Cavia porcellus) (UniProt P41144)
Experiment: Intrinsic activity at kappa opioid receptor in Oryctolagus cuniculus (rabbit) vas deferens assessed as inhibition of electrically evoked contraction after 15 min

`Oc1ccc2c(c1)[C@@]13CCCC[C@@]1(O)[C@@H](C2)N(CC1CCC1)CC3` gave a pD2 of 6.49.
